Earlier results as cited in US8658351B2, “Determining liver toxicity of an agent using metabolite biomarkers” (Metabolon, Inc., priority 2009, dated 2014).

Key:
Rats = conditions: High dose; agents known to induce distinct types of liver histopathology; cited from earlier work
humans = conditions: cited from earlier work

Compound | Classification of toxic effect on liver histopathology (type of histopathology) (Rats) | Hepatotoxicity to humans (humans)
S=C=Nc1cccc2ccccc12 [ANIT, 1-naphthyl isothiocyanate] | Cholestasis | 
CS(=O)(=O)Nc1ccc([N+](=O)[O-])cc1Oc1ccccc1 [Nimesulide] |  | known hepatotoxins to humans
